Measured values taken from patent US20250186432A1, “SPLEEN TYROSINE KINASE INHIBITOR, COMPOSITION, AND METHODS OF USE” (PURDUE RESEARCH FOUNDATION, priority 2022, published 2025).

Chains of the proteins cited; added tags and fusions are not shown. Residues count along the entry.
UniProt P00533, 25-1210: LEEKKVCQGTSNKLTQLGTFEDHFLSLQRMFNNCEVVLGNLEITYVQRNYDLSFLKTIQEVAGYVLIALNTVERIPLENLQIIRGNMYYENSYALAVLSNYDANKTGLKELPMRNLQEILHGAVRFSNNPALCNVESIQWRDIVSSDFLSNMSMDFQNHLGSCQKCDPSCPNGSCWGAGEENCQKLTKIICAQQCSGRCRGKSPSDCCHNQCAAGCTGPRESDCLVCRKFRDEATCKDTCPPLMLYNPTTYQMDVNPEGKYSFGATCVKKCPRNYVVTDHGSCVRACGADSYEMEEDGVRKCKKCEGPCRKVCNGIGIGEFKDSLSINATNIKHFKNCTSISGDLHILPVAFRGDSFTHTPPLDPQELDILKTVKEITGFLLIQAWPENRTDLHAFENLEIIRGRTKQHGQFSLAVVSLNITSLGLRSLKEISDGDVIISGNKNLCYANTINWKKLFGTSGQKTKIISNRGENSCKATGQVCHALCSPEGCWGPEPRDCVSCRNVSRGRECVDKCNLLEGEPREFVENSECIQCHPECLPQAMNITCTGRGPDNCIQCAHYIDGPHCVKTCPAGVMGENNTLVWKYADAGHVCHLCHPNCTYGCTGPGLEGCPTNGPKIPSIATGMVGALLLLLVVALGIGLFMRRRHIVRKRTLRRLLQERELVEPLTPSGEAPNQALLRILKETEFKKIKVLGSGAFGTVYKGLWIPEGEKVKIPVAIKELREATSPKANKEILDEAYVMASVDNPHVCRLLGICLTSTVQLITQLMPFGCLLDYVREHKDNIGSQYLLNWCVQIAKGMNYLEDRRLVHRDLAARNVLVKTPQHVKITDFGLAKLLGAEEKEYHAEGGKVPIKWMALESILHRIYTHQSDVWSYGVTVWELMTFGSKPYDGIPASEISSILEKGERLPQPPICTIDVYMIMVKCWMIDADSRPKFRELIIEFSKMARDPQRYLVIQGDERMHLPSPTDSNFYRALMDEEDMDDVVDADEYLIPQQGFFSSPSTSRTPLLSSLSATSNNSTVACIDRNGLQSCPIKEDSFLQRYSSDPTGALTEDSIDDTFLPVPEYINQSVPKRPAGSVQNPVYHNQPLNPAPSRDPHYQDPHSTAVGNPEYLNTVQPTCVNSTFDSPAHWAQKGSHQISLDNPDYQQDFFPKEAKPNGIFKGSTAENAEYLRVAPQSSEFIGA
UniProt P08581, 25-1390: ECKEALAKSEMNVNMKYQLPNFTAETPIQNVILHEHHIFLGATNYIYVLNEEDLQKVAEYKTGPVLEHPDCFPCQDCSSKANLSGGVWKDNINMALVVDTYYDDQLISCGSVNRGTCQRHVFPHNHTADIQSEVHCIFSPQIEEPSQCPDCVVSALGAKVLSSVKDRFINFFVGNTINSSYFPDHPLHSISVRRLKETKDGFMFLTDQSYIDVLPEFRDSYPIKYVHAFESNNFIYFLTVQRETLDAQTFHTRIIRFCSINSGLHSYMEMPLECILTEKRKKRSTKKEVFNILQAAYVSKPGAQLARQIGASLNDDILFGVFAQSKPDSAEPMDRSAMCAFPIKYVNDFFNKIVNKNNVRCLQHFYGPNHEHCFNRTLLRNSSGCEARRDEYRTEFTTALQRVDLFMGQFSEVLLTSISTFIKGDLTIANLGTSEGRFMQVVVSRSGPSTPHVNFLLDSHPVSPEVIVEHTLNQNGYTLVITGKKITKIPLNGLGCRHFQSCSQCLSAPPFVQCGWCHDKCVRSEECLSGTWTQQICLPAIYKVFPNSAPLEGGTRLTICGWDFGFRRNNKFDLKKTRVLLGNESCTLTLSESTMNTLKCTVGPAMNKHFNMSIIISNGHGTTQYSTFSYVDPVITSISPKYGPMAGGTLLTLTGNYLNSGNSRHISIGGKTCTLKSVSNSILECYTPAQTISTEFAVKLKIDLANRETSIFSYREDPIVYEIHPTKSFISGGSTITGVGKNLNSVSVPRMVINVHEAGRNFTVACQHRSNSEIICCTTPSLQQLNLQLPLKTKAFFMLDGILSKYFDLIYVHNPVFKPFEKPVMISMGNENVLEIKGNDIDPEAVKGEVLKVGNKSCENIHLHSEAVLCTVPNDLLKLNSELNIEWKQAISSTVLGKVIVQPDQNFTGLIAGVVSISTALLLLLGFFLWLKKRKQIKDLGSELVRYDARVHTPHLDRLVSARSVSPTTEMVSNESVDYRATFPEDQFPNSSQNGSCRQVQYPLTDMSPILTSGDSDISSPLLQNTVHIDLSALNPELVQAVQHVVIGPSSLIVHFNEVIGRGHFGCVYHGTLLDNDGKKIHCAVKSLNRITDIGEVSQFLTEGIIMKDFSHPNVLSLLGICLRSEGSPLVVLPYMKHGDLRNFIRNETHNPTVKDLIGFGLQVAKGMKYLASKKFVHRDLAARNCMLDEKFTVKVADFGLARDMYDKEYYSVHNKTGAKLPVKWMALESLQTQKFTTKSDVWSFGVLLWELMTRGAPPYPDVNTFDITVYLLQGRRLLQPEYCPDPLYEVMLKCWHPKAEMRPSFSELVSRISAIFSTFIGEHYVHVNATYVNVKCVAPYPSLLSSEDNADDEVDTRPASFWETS

Columns and labels:
EGFR = EGFR (Homo sapiens, UniProt P00533); assay: ADP-Glo kinase inhibition assay, EGFR
Syk = Syk (Homo sapiens, UniProt P43405); assay: ADP-Glo kinase inhibition assay, Syk
HGFR = HGFR (Homo sapiens, UniProt P08581); assay: ADP-Glo kinase inhibition assay, HGFR

SMILES | IC50 (EGFR) | IC50 (Syk) | IC50 (HGFR)
c1cn2cc(-c3ccc4cn[nH]c4c3)nc(Nc3ccc(N4CCOCC4)cc3)c2n1 [Entospletinib] | 1790 nM | 12 nM | 20600 nM
Nc1cncc(-c2cn3ccnc3c(Nc3ccc(N4CCN(C5COC5)CC4)cc3)n2)n1 [Lanraplenib] |  | 136 nM | 
